Drawing on US11906524B2, “Urea biosensors and uses thereof” (Duke University, priority 2015, dated 2024), this text covers Kd for one molecule.

This test is described as follows: Urea titration of emission intensity spectra (Nanodrop3300) with ratiometric analysis, singly labeled conjugates. The test is classed as binding. An excerpt: Determination of emission intensity spectra.
Ratiometric analysis of urea binding. […] 2
For a single urea-binding site, the fractional saturation is given by
[formula] where [L] is the ligand (urea) concentration and Kd the dissociation constant, ^trueKd for ytrue.
[formula] where ^appIλ2 and ^satIλ2 are the emission intensities of the monochromatic signal at wavelength λ2 of the ligand-free and ligand-bound protein, respectively.

Like-named read-outs stand apart in the source and are kept apart here.

B1: ctUBP6 W95C: ctUBP6 95C cysteine mutant (SEQ ID NO: 49), tested as Acrylodan and Badan conjugates (conjugate)
chain: MVEEPVDNKPGTDTSAEDTIKVGILHSLSGTMAISEVSLKDAELMAIEEINQAGGLLGKKIEPVIEDGASDWPTFAEKAKKLLQNDKVATVFGCCTSASRKAVLPVFEENNGLLWYPVQYEGMESSPNIFYTGAAPNQQIVPAVEWLLENKGKRFFLLGSDYVFPRTANKIIKAQLSAIGGELIAEEYTPLGHTDYSTIVNKIKTAKPDVVFNTLNGDSNVAFFKQLKDAGITSEDITVCSVSVAEEEIRGIGAENIKGHLVSWNYYQTTDTPENKEFVEKYKSKYGSDRVTDDPIEAAYIAVHLWAEAVKKAGSFEVEKVKEAAKGLEFKAPEGLVKIEGENQHLWKPVRIGEVQEDGLIKEIWSTSEAVRPDPYLKTYDWAKGLSDGGSHHHHHH
modifications: Acrylodan or Badan conjugate; ctUBP6_95C (95C substitution mutant with signal peptide replaced with M and a GGSHHHHHH at C-terminus)
As for B1, the Kd reads like this: (ctUBP6 Acrylodan conjugate, nb = no binding, read-out: ^trueKd) 2300 µM; (ctUBP6 Badan conjugate, ^d = noisy data and or bad fit, read-out: ^appKd) 2500 µM; (ctUBP6 Badan conjugate, ^d = noisy data and or bad fit, read-out: ^trueKd) 2700 µM.
